The chains behind the UniProt entries cited, without tags or fusion partners. Residues count along the entry.
UniProt O75417, 1780-2590: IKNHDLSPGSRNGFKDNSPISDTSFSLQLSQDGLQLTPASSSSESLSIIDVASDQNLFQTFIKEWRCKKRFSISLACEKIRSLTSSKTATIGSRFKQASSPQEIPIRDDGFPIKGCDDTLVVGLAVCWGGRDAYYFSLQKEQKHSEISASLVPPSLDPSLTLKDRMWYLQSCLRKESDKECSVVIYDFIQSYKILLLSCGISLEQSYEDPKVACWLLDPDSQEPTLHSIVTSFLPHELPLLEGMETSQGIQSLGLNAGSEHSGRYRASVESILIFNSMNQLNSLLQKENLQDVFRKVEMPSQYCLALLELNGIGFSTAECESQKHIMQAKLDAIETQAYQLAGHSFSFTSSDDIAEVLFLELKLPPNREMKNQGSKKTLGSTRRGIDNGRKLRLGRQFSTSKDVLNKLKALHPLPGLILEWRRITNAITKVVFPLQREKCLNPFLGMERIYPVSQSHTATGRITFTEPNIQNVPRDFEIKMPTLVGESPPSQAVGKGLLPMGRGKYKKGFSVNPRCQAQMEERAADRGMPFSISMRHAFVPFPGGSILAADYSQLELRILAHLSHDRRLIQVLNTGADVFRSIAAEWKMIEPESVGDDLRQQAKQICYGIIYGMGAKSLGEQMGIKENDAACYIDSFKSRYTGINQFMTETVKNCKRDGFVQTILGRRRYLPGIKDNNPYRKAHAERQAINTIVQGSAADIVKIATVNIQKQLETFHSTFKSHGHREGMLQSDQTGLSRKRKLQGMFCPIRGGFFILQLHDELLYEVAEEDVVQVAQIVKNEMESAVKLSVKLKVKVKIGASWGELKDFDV

In patent US20250195530A1, “POLQ INHIBITORS” (ASTRAZENECA AB, priority 2022, published 2025):

Biological target: isolated polymerase domain (I1780-V2590) of DNA polymerase theta (Polθ) (Homo sapiens (Human), UniProt O75417)
Test: biochemical

Structure (SMILES)	IC50 [nM]
Cc1ccnc(Cn2c(-c3ccc(OC4CCCNCC4)cc3Cl)nc3c(OC4(C)CC4)ncnc32)c1 (single isomer, unassigned) [Example T510, 8-(4-(azepan-4-yloxy)-2-chlorophenyl)-6-(1-methylcyclopropoxy)-9-((4-methylpyridin-2-yl)methyl)-9H-purine]	5.01
Cc1ccnc(Cn2c(-c3ccc(S(C)(=O)=O)cc3Cl)nc3c(OC4(C)CC4)ncnc32)c1 [Example T16, 8-(2-chloro-4-(methylsulfonyl)phenyl)-6-(1-methylcyclopropoxy)-9-((4-methylpyridin-2-yl)methyl)-9H-purine]	12.6
CC1(Oc2ncnc3c2nc(-c2ccc(OCCC(=O)NS(C)(=O)=O)cc2Cl)n3Cc2cccc(Cl)c2)CC1 [Example T189, 3-(3-chloro-4-(9-(3-chlorobenzyl)-6-(1-methylcyclopropoxy)-9H-purin-8-yl)phenoxy)-N-(methylsulfonyl)propanamide]	7.94
CC1(Oc2ncnc3c2nc(-c2ccc(OCCN4CCNCC4C(F)F)cc2Cl)n3Cc2ccccc2)CC1 (stereo not drawn) [Example T567, 9-benzyl-8-(2-chloro-4-(2-(2-(difluoromethyl)piperazin-1-yl)ethoxy)phenyl)-6-(1-methylcyclopropoxy)-9H-purine]	10
COc1cccc(Cn2c(-c3ccc(OCCC(C)C(=O)O)cc3Cl)nc3c(OC4(C)CC4)ncnc32)c1 (single isomer, unassigned) [Example T455, 4-(3-chloro-4-(9-(3-methoxybenzyl)-6-(1-methylcyclopropoxy)-9H-purin-8-yl)phenoxy)-2-methylbutanoic acid]	6.31
Cc1ccnc(Cn2c(-c3ccc(NC(=O)N4CC[C@@H](O)C4)cc3Cl)nc3c(OC4(C)CC4)ncnc32)c1 [Example T342, (R)-N-(3-chloro-4-(6-(1-methylcyclopropoxy)-9-((4-methylpyridin-2-yl)methyl)-9H-purin-8-yl)phenyl)-3-hydroxypyrrolidine-1-carboxamide]	7.94
Cc1ccnc(Cn2c(-c3ccc(CN4CC5(CCN5)C4)cc3Cl)nc3c(OC4(C)CC4)ncnc32)c1 [Example T489, 8-(4-((1,6-diazaspiro[3.3]heptan-6-yl)methyl)-2-chlorophenyl)-6-(1-methylcyclopropoxy)-9-((4-methylpyridin-2-yl)methyl)-9H-purine]	6.31
CC(=O)NCCCOc1ccc(-c2nc3c(OC4(C)CC4)ncnc3n2Cc2cc(C)ccn2)c(Cl)c1 [Example T367, N-(3-(3-chloro-4-(6-(1-methylcyclopropoxy)-9-((4-methylpyridin-2-yl)methyl)-9H-purin-8-yl)phenoxy)propyl)acetamide]	5.01
CC1(Oc2ncnc3c2nc(-c2ccc(OCCCCC(=O)O)cc2Cl)n3Cc2cccc(Cl)c2)CC1 [Example 43, 5-(3-Chloro-4-(9-(3-chlorobenzyl)-6-(1-methylcyclopropoxy)-9H-purin-8-yl)phenoxy)pentanoic acid]	5.01
Cc1ccnc(Cn2c(-c3ccc(OC4CCNC4=O)cc3Cl)nc3c(OC4(C)CC4)ncnc32)c1 (racemic) [Example T178, 3-(3-chloro-4-(6-(1-methylcyclopropoxy)-9-((4-methylpyridin-2-yl)methyl)-9H-purin-8-yl)phenoxy)pyrrolidin-2-one]	10
Cc1ccnc(Cn2c(-c3ccc(OCCCS(C)(=O)=O)cc3Cl)nc3c(OC4(C)CC4)ncnc32)c1 [Example T234, 8-(2-chloro-4-(3-(methylsulfonyl)propoxy)phenyl)-6-(1-methylcyclopropoxy)-9-((4-methylpyridin-2-yl)methyl)-9H-purine]	5.01
Cc1ccnc(Cn2c(-c3ccc(OCCN4CCNC[C@@H]4C)cc3Cl)nc3c(OC4(C)CC4)ncnc32)c1 [Example T594, (S)-8-(2-chloro-4-(2-(2-methylpiperazin-1-yl)ethoxy)phenyl)-6-(1-methylcyclopropoxy)-9-((4-methylpyridin-2-yl)methyl)-9H-purine]	6.31
